{
  "source": "patent US7179627B2",
  "about": "“Cyclooxygenase variants and methods of use” (Brigham Young University, priority 2001, dated 2007)",
  "origin": "cited, not measured here",
  "settings": "under physiological conditions; cited from earlier work",
  "data": [
    {"smiles": "CC(=O)Nc1ccc(O)cc1", "note": "[Acetaminophen]", "values": [
      {"measurement": "steady-state concentration", "result": "approximately 100 μM"}
    ]}
  ]
}
